# Antibody variant affinities, Ab-14 heavy chain, assay B

The measurements come from Li et al. 2023 (doi:10.1038/s41467-023-39022-2) through the FLAb antibody collection.

Target: peptide PDVDLGDISGINAS, taken from heptad repeat 2 (HR2) of SARS-CoV-2 spike.

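The starting antibody came from a phage panning campaign against this peptide. Designed CDR sequences, proposed from the first random library and measured here. Their group label is 14H_En_Gibbs (En: ensemble of fine-tuned language models; Gibbs: Gibbs sampling). The assay is AlphaSeq: two haploid yeast populations carry antibody and antigen on their surface. Binding brings cells together so that they mate, and sequencing counts the barcode pairs among the diploids. Read counts were normalised to the haploid input and turned into Kd by a linear fit to BCL2-family pairs of known affinity, for each replicate. There are six technical replicates.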

The variants keep the light chain, the linker and the frameworks of Ab-14 (scFv order VH, the linker GGGGSGGGGSGGGGS, VL).
VH: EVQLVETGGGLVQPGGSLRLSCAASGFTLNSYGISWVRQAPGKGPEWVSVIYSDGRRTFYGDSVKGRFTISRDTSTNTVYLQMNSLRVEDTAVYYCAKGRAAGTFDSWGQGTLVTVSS
VL: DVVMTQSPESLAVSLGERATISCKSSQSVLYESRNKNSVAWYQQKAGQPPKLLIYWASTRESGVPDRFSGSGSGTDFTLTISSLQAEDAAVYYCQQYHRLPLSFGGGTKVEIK

The parent's heavy chain CDRs are GFTLNSYGIS, VIYSDGRRTFYGDSVK, GRAAGTFDS; each variant's own CDRs replace them letter for letter.
Numbers give log10(Kd / nM), so 0 is 1 nM and 3 is 1 µM. Smaller is tighter.
Where no diploid with the target was found in that replicate, the entry reads "nd": below detection, most likely a poor binder, though not proof of it.
Three control strains display no target. For all heavy chain designs, 1% of the pairings with them gave a signal, with a median of 2.08 and one signal in twenty below 0.84, so weak values seen in few replicates may be background. The control count says in how many pairings with the empty strains this scFv gave a signal, with their mean in brackets.

{"CDR-H1": "GFDLNEYGIS", "CDR-H2": "VIYADGSRQMYADNVK", "CDR-H3": "DVMGGMKLV", "log10 Kd (nM) by replicate": "nd / nd / nd / nd / nd / nd", "signal with controls": "0 of 18"}
{"CDR-H1": "GFDLQEYGIS", "CDR-H2": "VIYADGLREAYSEKVK", "CDR-H3": "GQLMGYFSF", "log10 Kd (nM) by replicate": "nd / nd / nd / nd / nd / nd", "signal with controls": "0 of 18"}
{"CDR-H1": "GFSLDEYGVS", "CDR-H2": "VIYADGLRTQYVNDVK", "CDR-H3": "GLESFAVKM", "log10 Kd (nM) by replicate": "nd / nd / nd / nd / nd / nd", "signal with controls": "0 of 18"}
{"CDR-H1": "GDDLEAYGIS", "CDR-H2": "VIYADGMRTYYSDAVK", "CDR-H3": "GNVNGTFTD", "log10 Kd (nM) by replicate": "nd / nd / nd / nd / nd / nd", "signal with controls": "0 of 18"}
{"CDR-H1": "GFNIDEYGIS", "CDR-H2": "VIYADGLRYHYANSVK", "CDR-H3": "GEMAGTFMV", "log10 Kd (nM) by replicate": "nd / nd / nd / nd / nd / 2.26", "signal with controls": "0 of 18"}
{"CDR-H1": "GFDLKEYGIS", "CDR-H2": "VIYADGERAGYADNVK", "CDR-H3": "GEWGGKFLV", "log10 Kd (nM) by replicate": "nd / nd / nd / nd / nd / nd", "signal with controls": "0 of 18"}
{"CDR-H1": "GFNLNEYGIS", "CDR-H2": "VIYADGHRRYYVDNVK", "CDR-H3": "GHLGGTFSM", "log10 Kd (nM) by replicate": "nd / 0.45 / nd / 0.73 / 1.26 / nd", "signal with controls": "0 of 18"}
{"CDR-H1": "GFDLNEYGVS", "CDR-H2": "VIYADGIRSAYADSFK", "CDR-H3": "GNVGVAFFQ", "log10 Kd (nM) by replicate": "nd / nd / nd / nd / nd / nd", "signal with controls": "0 of 18"}
{"CDR-H1": "GYDIEEYGIS", "CDR-H2": "VIYADGKRNAYANSVK", "CDR-H3": "GKWAGAFVD", "log10 Kd (nM) by replicate": "nd / 2.39 / nd / nd / nd / nd", "signal with controls": "2 of 18 (2.57)"}
{"CDR-H1": "GPSLDEYGIS", "CDR-H2": "VIYADGMRTAYTDSVK", "CDR-H3": "GLFGATFVD", "log10 Kd (nM) by replicate": "nd / nd / nd / nd / nd / nd", "signal with controls": "0 of 18"}
{"CDR-H1": "GFDLSEYGIS", "CDR-H2": "VIYADGRRFSYTDAVK", "CDR-H3": "GQVEGMLDV", "log10 Kd (nM) by replicate": "nd / nd / nd / nd / 3.00 / nd", "signal with controls": "1 of 18 (1.95)"}
{"CDR-H1": "GDQLDEYGIS", "CDR-H2": "VIYADGMRTMYADSFK", "CDR-H3": "GMKSVNIGD", "log10 Kd (nM) by replicate": "nd / nd / nd / nd / nd / nd", "signal with controls": "0 of 18"}
{"CDR-H1": "GFNLNEYGIS", "CDR-H2": "VIYADGYRRAYANSVK", "CDR-H3": "GYNMSLGVT", "log10 Kd (nM) by replicate": "nd / nd / nd / nd / nd / nd", "signal with controls": "0 of 18"}
{"CDR-H1": "GFDLDQYGIS", "CDR-H2": "VIYADGQRTQYANDVK", "CDR-H3": "GKYAGSMLS", "log10 Kd (nM) by replicate": "nd / nd / nd / nd / nd / nd", "signal with controls": "0 of 18"}
{"CDR-H1": "GADLNEYGIS", "CDR-H2": "VIYADGSRTEYADTVK", "CDR-H3": "GKHGGMFDS", "log10 Kd (nM) by replicate": "nd / nd / nd / nd / nd / 3.44", "signal with controls": "0 of 18"}
{"CDR-H1": "GNDLQEYGIS", "CDR-H2": "VIYADGQRVNAVSQVK", "CDR-H3": "GEQAGTFNL", "log10 Kd (nM) by replicate": "nd / nd / nd / nd / nd / nd", "signal with controls": "0 of 18"}
{"CDR-H1": "GFNLDEYGIS", "CDR-H2": "VIYADGSRVAYADNVK", "CDR-H3": "GLNGKIGDL", "log10 Kd (nM) by replicate": "1.57 / nd / nd / nd / nd / nd", "signal with controls": "1 of 18 (2.43)"}
{"CDR-H1": "GFDLMEYGIS", "CDR-H2": "VIYADGVRTAYLDQVK", "CDR-H3": "GESGGAYYT", "log10 Kd (nM) by replicate": "nd / nd / nd / nd / nd / nd", "signal with controls": "0 of 18"}
{"CDR-H1": "GFDIDEYGIS", "CDR-H2": "VIYADGIRQFYQDKVK", "CDR-H3": "GNVTGMFDT", "log10 Kd (nM) by replicate": "1.96 / 1.42 / 1.21 / 2.08 / 1.49 / 1.36", "signal with controls": "3 of 18 (1.83)"}
{"CDR-H1": "GFDIQDYGIS", "CDR-H2": "VIYADGLRTSVSNNFK", "CDR-H3": "GIIAGTFTS", "log10 Kd (nM) by replicate": "0.07 / -0.07 / 0.66 / -0.69 / -0.26 / 0.04", "signal with controls": "0 of 18"}
{"CDR-H1": "GFSLQEYGIS", "CDR-H2": "VIYADGMRNQYANTVK", "CDR-H3": "GMEAGVFVY", "log10 Kd (nM) by replicate": "nd / nd / nd / nd / nd / nd", "signal with controls": "0 of 18"}
{"CDR-H1": "GFNLDEYGIS", "CDR-H2": "VIYADGMRNAYRDTVK", "CDR-H3": "GAHSFGLKT", "log10 Kd (nM) by replicate": "nd / nd / nd / nd / nd / nd", "signal with controls": "0 of 18"}
{"CDR-H1": "GFDVMEYGIS", "CDR-H2": "VIYADGLRTQYANSVK", "CDR-H3": "GGLETDFFV", "log10 Kd (nM) by replicate": "nd / nd / nd / nd / nd / nd", "signal with controls": "0 of 18"}
{"CDR-H1": "GFDLGEYGIS", "CDR-H2": "VIYADGHRTAYSTKVK", "CDR-H3": "GTIGGMFFN", "log10 Kd (nM) by replicate": "nd / nd / nd / nd / nd / nd", "signal with controls": "0 of 18"}
{"CDR-H1": "GFDLNEYGVS", "CDR-H2": "VIYADGFRTAYTDSVK", "CDR-H3": "GNIFDAIMA", "log10 Kd (nM) by replicate": "1.68 / nd / nd / nd / nd / nd", "signal with controls": "0 of 18"}

A selection of 2 entries from above:

{"CDR-H1": "GFDLKEYGIS", "CDR-H2": "VIYADGERAGYADNVK", "CDR-H3": "GEWGGKFLV", "log10 Kd (nM) by replicate": "nd / nd / nd / nd / nd / nd", "signal with controls": "0 of 18"}
{"CDR-H1": "GFNLNEYGIS", "CDR-H2": "VIYADGYRRAYANSVK", "CDR-H3": "GYNMSLGVT", "log10 Kd (nM) by replicate": "nd / nd / nd / nd / nd / nd", "signal with controls": "0 of 18"}

The parent sequence was in this pool as ten entries: three were never detected, three once, and four in most replicates, with averages from 0.34 to 2.37.
The authors averaged sequences with at least three values out of six and counted those with two or fewer as poor binders.
The range of this assay differs from that of the first round, and the authors advise against merging the two.